Measurements reported in patent US8450308B2.

The chains behind the UniProt entries cited, without tags or fusion partners. Residues count along the entry.
UniProt P56817, 22-458 limits assumed: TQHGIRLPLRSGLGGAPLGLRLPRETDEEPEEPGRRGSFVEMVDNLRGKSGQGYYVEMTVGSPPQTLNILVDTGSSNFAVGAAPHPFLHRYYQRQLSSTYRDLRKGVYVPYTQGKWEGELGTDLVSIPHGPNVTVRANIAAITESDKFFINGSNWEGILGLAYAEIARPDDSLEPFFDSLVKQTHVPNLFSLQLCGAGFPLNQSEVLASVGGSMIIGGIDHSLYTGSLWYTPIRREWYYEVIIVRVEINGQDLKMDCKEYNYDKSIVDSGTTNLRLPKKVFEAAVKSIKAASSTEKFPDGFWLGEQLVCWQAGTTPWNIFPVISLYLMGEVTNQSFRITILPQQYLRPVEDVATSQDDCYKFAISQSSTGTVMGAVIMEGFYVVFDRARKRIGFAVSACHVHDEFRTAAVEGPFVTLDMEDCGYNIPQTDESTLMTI

Assays:
[1] = tested on: H4 neuroglioma cell line that stably expresses Amyloid Precursor Protein (APP) containing the KM-NL Swedish mutation (H4-APPsw); Aβ 1-40; experiment: BACE cell assay: soluble Amyloid Beta 1-40 (Aβ 1-40) in culture media of H4-APPsw cells; details: in vitro cell activity, secreted Aβ 1-40, overnight treatment, tested form: TFA
[2] = biological target: truncated human beta-secretase (residues 1-458, His6-tagged at the C-terminus) (Homo sapiens, UniProt P56817); experiment: BACE fluorescence quench assay; type: biochemical; details: in vitro enzyme activity, pH 4.5

SMILES	IC50 [1] [nM]	IC50 [2] [nM]
COc1ccc2c(c1)CCCC1(C2)CC2(N=C(N)N(C)O2)c2cc(-c3cccc(C#N)c3)ccc2O1 (centres unmarked)	100 to 500	
CN1C(=O)C2(CC(c3ccccc3)Oc3ccc(-c4ccncc4)cc32)N=C1N (centres unmarked) [Compound 58, 2′-amino-1′-methyl-2-phenyl-6-(pyridin-4-yl)spiro[chroman-4,4′-imidazol]-5′(1′H)-one]		5000 to 10000
